These are literature values, as cited in US12589095B2, “Unit dosage form for transmucosal drug delivery of an active pharmaceutical ingredient” (Primo Pharmatech LLC, priority 2019, dated 2026).

For this data set the following is noted: known / published value; cited from earlier work.

For the substance Triethanolamine oleate, the HLB is on record as 11.1.
In the case of Polyoxyethylene alkyl phenol, the HLB is on record as 12.0.
